Experimental data taken from US20090202439A1, “Methods for treatment of angiogenesis” (The Johns Hopkins University, priority 2004, published 2009).

What was measured:
PECAM-1 = PECAM-1 protein expression by Western immunoblot in HUVECs; format: cell-based, human; settings: CC 5.0 μM; GÖ 6850 and 6976 50 nM; BPB 10 μM; MAFP 3.0 μM; compared with vehicle (DMSO)
HUVECs = assay: In vitro angiogenesis/tube formation assay in HUVECs; format: cell-based, human; settings: CC 5.0 μM; GÖ 6850 and 6976 50 nM; BPB 10 μM; MAFP 3.0 μM; compared with vehicle (DMSO)

Q: With chelerythrinbe chloride as the substance, how does the “VEGF/LacCer induced PECAM-1 expression” value (PECAM-1) read?
A: The value was “abrogated”.

Q: And the “VEGF/LacCer induced tube formation” value (HUVECs)?
A: Its value is “abrogated”.
